Experimental data as given in patent US20240058450A1, “BCL-XL Inhibitory Compounds Having Low Cell Permeability and Antibody Drug Conjugates Including the Same” (AbbVie Inc., priority 2014, published 2024).
Like-named read-outs stand apart in the source and are kept apart here.

Amino acid sequences for entries named in this document (tags omitted).
UniProt Q07817, whole entry: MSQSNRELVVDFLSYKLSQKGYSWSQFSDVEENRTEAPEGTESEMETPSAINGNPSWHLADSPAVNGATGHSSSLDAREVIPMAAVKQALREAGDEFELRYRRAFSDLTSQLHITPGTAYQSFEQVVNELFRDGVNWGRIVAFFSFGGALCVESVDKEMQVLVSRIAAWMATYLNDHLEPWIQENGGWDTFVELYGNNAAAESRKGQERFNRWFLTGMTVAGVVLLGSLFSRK

Tests used:
[1] = system: Molt-4 human acute lymphoblastic leukemia cells; assay: Molt-4 cell viability assay (CellTiter-Glo, 48 hours, 10% HS); settings: read-out: Molt-4 Viability EC50 (nM, 10% HS), non-permeabilized cells
Experimental: The ability of Bcl-xL inhibitors that are able to traverse cell membranes to inhibit Bcl-xL can be determined in cell-based killing assays using a variety of cell lines and mouse tumor models. For example, their activity on cell viability can be assessed on a panel of cultured tumorigenic and non-tumorigenic cell lines, as well as primary mouse or human cell populations.
In one exemplary set of conditions, Molt-4 (ATCC, Manassas, VA) human acute lymphoblastic leukemia cells were plated 12,500 cells per well in 384-well tissue culture plates (Corning, Corning, NY) in a total volume of 25 μL tissue culture medium supplemented with 10% human serum (Sigma-Aldrich, St. Louis, MO) and treated with a 3-fold serial dilution of the compounds of interest from 10 μM to 0.0005 μM. Each concentration was tested in duplicate at least 3 separate times. The number of viable cells following 48 hours of compound treatment was determined using the CellTiter-Glo®, Luminescent Cell Viability Assay according to the manufacturer's recommendations (Promega Corp., Madison, WI). Compounds were tested in the presence of 10% HS.

[2] = system: permeabilized Bcl-xL dependent Molt-4 cells; assay: Cytochrome C release in selectively (digitonin) permeabilized Molt-4 cells; settings: read-out: Molt-4 Permeabilized Cyt C Release, 4 h treatment
Source text: The permeabilization of the mitochondrial outer membrane to release proteins from the intermembrane space into the cytosol is a pivotal event in the process of apoptosis. Specifically, the release of cytochrome C triggers the formation of the apoptosome which, in turn, results in caspase activation and other events that will commit the cell to undergo programmed cell death (Goldstein el al., 2005, Cell Death and Differentiation 12:453). The process of mitochondrial outer membrane permeabilization (MOMP) is controlled by the Bcl-2 family members. It is promoted by the multidomain pro-apoptotic proteins Bax and Bak which, upon activation, oligomerize on the outer mitochondrial membrane and form pores to ultimately release cytochrome C. This action is antagonized by the antiapoptotic members, including Bcl-2 and Bcl-xL. […] This process of cytochrome C release can be measured in cells via Western blot of both mitochrondrial and cytosolic fractions, and can be used a proxy measurement of apoptosis in cells. […]
To determine if Bcl-xL inhibitors were inducing cell death through apoptosis, cytochrome C release was measured in Bcl-xL dependent Molt-4 cells following treatment Specifically, 1×10^6 cells were treated for 4 h (37° C., 5% CO2) with the test compounds in half-log dilutions starting at 3.0 μM and ending at 0.01 μM. […]

Bcl-xL = Bcl-xL (Homo sapiens, UniProt Q07817); assay: Time Resolved-Fluorescence Resonance Energy Transfer (TR-FRET) binding assay, competition with probe F-Bak
Experimental: Tb-anti-GST antibody was purchased from Invitrogen (Catalog No. PV4216).
For the assay, test compounds were serially diluted in DMSO starting at 50 μM (2× starting concentration; 10% DMSO) and 10 μL transferred into a 384-well plate. 10 μL of a protein/probe/antibody mix was then added to each well at final concentrations listed below:
The samples were then mixed on a shaker for 1 minute and incubated for an additional 2 hours at room temperature. For each assay plate, a probe/antibody and protein/antibody/probe mixture were included as a negative and a positive control, respectively. Fluorescence was measured on the Envision (Perkin Elmer) using a 340/35 nm excitation filter and 520/525 (F-Bak) and 495/510 nm (Tb-labeled anti-his antibody) emission filters. Dissociation constants (Ki) were determined using Wang's equation (Wang, 1995, FEBS Lett. 360:111-114). The TR-FRET assay can be performed in the presence of varying concentrations of human serum (HS) or fetal bovine serum (FBS). Compounds were tested both without HS and in the presence of 1% HS.

## Cc1c(-c2ccc(N3CCc4cccc(C(=O)Nc5nc6ccccc6s5)c4C3)nc2C(=O)O)cnn1CC12CC3(C)CC(C)(C1)CC(OCCNCCCS(=O)(=O)O)(C3)C2 [Example 1.5, 6-[8-(1,3-benzothiazol-2-ylcarbamoyl)-3,4-dihydroisoquinolin-2 (1H)-yl]-3-{1-[(3,5-dimethyl-7-{2-[(3-sulfopropyl)amino]ethoxy}tricyclo[3.3.1.1^3,7]dec-1-yl)methyl]-5-methyl-1H-pyrazol-4-yl}pyridine-2-carboxylic acid]
[1]
  EC50: 89 nM
[2]
  EC50: < 0.5 nM
Bcl-xL; read-out: Bcl-xL Binding Ki (nM, 1% HS), in the presence of 1% HS
  Ki: 0.052 nM
Bcl-xL; read-out: Bcl-xL Binding Ki, without HS
  Ki: < 0.001 nM
